Assay outcomes from PubChem.
TDP1 inh: TDP1 (human) enzyme inhibition; recombinant TDP1, AlphaScreen DNA substrate cleavage; Potency, µM (highest dose often 130 µM), for inactives: at the highest dose activity change, negative = inhibition, usual class: inhibitors; actives 0.28% (n = 350,000); AID 485290; also: % is scaled to controls: 0 for no effect and ±100 for the full control effect; nearly all actives have a fitted effect of over 40% in size
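Tdp1 1 nM final; 15 min RT w/ cpd; substrate 15 nM, 5 min; beads 10 ug/ml, 10 min; AlphaScreen read. Neg ctrl: no enzyme.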
ALOX12 inh: ALOX12 (human) lipoxygenase inhibition | purified 12hLO, xylenol orange hydroperoxide absorbance | Potency, µM (titrated, usually from 108 µM), for the others: at the highest dose activity change, negative = inhibition, hits mostly inhibitors | actives 1.1% (n = 580,000); also: % is scaled to controls: 0 for no effect and ±100 for the full control effect
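Hydroperoxide product was detected by ferrous iron/xylenol orange as the 573 to 405 nm absorbance ratio. Arachidonic acid at 40 uM (final) was turned over for 30 min at room temperature by 150 nM human 12hLO, pH 7.0 Hepes buffer, after 15 min compound preincubation.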
Rango-impB inh: Rango-importin beta binding inhibition. Rango CFP/YFP FRET sensor + importin beta, 45 min. Potency, µM (doses to about 92.2 µM), for the others: top-dose inhibition of complex formation. Q14974. actives 0.031% (n = 340,000); calls by dose curve;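 also: 0% = DMSO wells and 100% = buffer wells lacking importin beta; nearly all actives have a fitted effect of over 15% in size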
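Inhibition scored from the CFP 486 nm/YFP 530 nm FRET ratio 45 min after adding 0.125 microM importin beta to 50 nM Rango biosensor preincubated 5 min with compound (room temperature, PBS with DTT, Tween-20, BSA). No-importin wells as positive control.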
Rango dissoc inh: inhibitors of RanGTP-induced Rango-importin beta complex dissociation. O95149+P62826. Biochemical FRET Rango-importin beta, RanGTP-induced dissociation. Potency, µM (highest dose often 46.1 µM), inactives show at the top dose activity change, negative = inhibition. actives 0.071% (n = 340,000). AID 540253; calls by dose curve; also: % of control where 0% means no effect; nearly all actives have a fitted effect of over 45% in size
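Quantitative HTS using a FRET biosensor: 0.1 uM Rango, 0.25 uM importin beta, 0.6 uM Ran, 2 mM GTP, 0.2 uM RCC1 final, PBS with DTT, Tween-20 and BSA. Post-read taken 45 min after Ran addition.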
TSG101-PTAP inh: blocks PTAP/TSG101 interaction to inhibit HIV-1 budding; Q99816; Fluorescence polarization, FITC-PTAP peptide / Tsg101 binding; Potency, µM (top dose mostly 115 µM), for the others: at the highest dose activity change, negative = inhibition, most hits filed as inhibitors; 340,000 tested, under 10 active; AID 493005; active = well fitted inhibition curve with a large enough effect in the main read-out, with a control signal flat, not every such curve was filed as active; inconclusive = small, poorly fitted or top-dose-only effect, or effect the other way, or a change in a side signal; inactive = no such curve, though single readings can be large or run the other way; also: % of control where 0% means no effect
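FP read-out: FITC-PTAP peptide, 50 nM final, binding Tsg101 binding domain, 10 uM final; 20 min, r.t.; 10 mM HEPES pH 7.5, 0.15 M NaCl, 0.01% Tween 20, 3 mM EDTA, 0.1 mM TCEP.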
ClpP mod: qHTS Assay for Activators of ClpP; purified B. subtilis ClpP, FRET peptide cleavage, 20 min; Potency, µM (series often up to 57.5 µM), inactives show at the highest dose activity change, negative = active; actives 1.9% (n = 340,000); AID 651965, 2013; active = well fitted falling curve with a large enough effect; inconclusive = small, poorly fitted or top-dose-only effect; inactive = no such curve, though single readings can be large or run the other way; also: the source files actives as falling curves though it sought activators and does not explain the sign; nearly all actives have a fitted effect of over 65% in size
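ClpP 10 microg/mL final, pH 8 Tris/KCl buffer with BSA, glycerol, Tween-20; compound pinned in; FRET-FV substrate; RT 20 min; Ex320/Em430; ΔFRET vs ADEP 5.8 microM, DMSO, no enzyme.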
ClpP validation: Bacillus subtilis ClpP inhibition, validated hit | actives 40% (n = 470) | shares compounds with ClpP mod | Potency, µM (doses to about 57.5 µM), inactives show top-dose activity change, negative = inhibition, actives largely listed as inhibitors | purified B. subtilis ClpP, FRET-FV substrate cleavage, 20 min | AID 743245; also: % is scaled to controls: 0 for no effect and ±100 for the full control effect; nearly all actives have a fitted effect of over 70% in size
Starred values were filed as active, the others as inactive; u = inconclusive; x = no result given; [ ] = dose if it differs, or a comment. In the library only some 2.4% were active in any assay of this set; here they are far more common. Unless noted, calls follow the shape of the dose curve; as a rule, active = well fitted curve in the direction sought with a large enough effect; inconclusive = small, poorly fitted or top-dose-only effect, or another doubt; inactive = no such curve, though single readings can be large; an effect the other way counts as inactive or inconclusive. Potency is read from the fitted curve at half-maximal effect.

SMILES | TDP1 inh | ALOX12 inh | Rango-impB inh | Rango dissoc inh | TSG101-PTAP inh | ClpP mod | others
CCCCCC(=O)N1C[C@@H](O)[C@H](n2cc(-c3ccc(F)cc3)nn2)C[C@@H]1c1ccc(Cl)cc1 | x | 10µM* | x | x | x | -0.4%
Cc1ccccc1Cn1c2ccccc2c2cnn(CC(=O)NCc3cccc(Cl)c3)c(=O)c21 | 0.0% | -22.9% | x | x | x | 22.4µM*
COc1ccccc1CNC(=O)Cn1ncc2c3ccccc3n(Cc3ccccc3C)c2c1=O | 0.0% | -6.7% | x | x | x | u
O=C(Cn1cccc1-c1nc(-c2ccc3c(c2)OCO3)no1)NCCc1ccc(Cl)cc1 | x | 27.2% | x | x | x | x
CCN1C(=O)CN(C(=O)C2CCCC2)CC12CCOCC2 | x | 9.7% | x | x | x | x
CCN(C=NC1=NN(c2cccc(C(F)(F)F)c2)CC1)CC | -5.5% | u | 1.6% | 1.1% | -0.3% | -2.8%
Cc1cccc(N2CCC(N=CN(C)C)=N2)c1 | 0.0% | 44.7µM* | -0.9% | -10.2% | -1.0% | x
NS(=O)(=O)c1cc2c(cc1Cl)NC(CC1CCCC1)NS2(=O)=O (configuration not stated) | x | -38.8% | 58µM* | -6.0% | -6.4% | -0.9%
CCC1Nc2cc(Cl)c(S(N)(=O)=O)cc2S(=O)(=O)N1 (configuration not stated) | x | -8.4%[22.9 µM] | x | x | x | x
COc1ccc(N2CCN(C(=O)Cn3cccc3-c3nc(-c4ccc5c(c4)OCO5)no3)CC2)cc1 | x | 2.3% | x | x | x | x
CCOC(=O)c1c(C)[nH]c(C(=O)OCC(=O)OC)c1C | x | 2.5% | x | x | x | x
COCCN(CC(=O)Nc1cccc(C)c1C)C(=O)c1cc2c(s1)CCC2 | 22.4µM* | 4.9% | 4.0% | 1.0% | -3.2% | -1.8%
CCC(NC(=O)c1ccco1)C12CC3CC(CC(C3)C1)C2 (configuration not stated) | x | 27.5% | x | x | x | x
N#Cc1ccccc1-c1ccc2ncnc(NCc3cccs3)c2c1 | x | 12.6µM* | x | x | x | x
Cc1cccc(CNc2ncnc3ccc(-c4ccccc4C#N)cc23)c1 | -5.7%[56.1 µM] | -50.2% | x | x | x | x
COc1ccc(-c2cc(N3CCC(NC(=O)c4cccc(F)c4)C3)n[nH]2)cc1 (configuration not stated) | x | 47.0% | x | x | x | x
N#Cc1ccc(C(=O)Nc2ccc(Cl)c(C(F)(F)F)c2)cc1 | x | -24.3% | x | x | x | x
CCOc1ccccc1-c1nc(-c2ccc(C)nc2OC)no1 | 2.0% | -20.1% | -3.0% | -23.1% | -3.2% | 28.2µM*
O=C(NCc1ccc2c(c1)OCO2)c1ccc2c(c1)C(=O)N(Cc1cccnc1)C2=O | 3.3% | 0.0% | -1.0% | -4.7% | -2.2% | 17.8µM*
Cc1ccc(C)c(NC(=O)CC2(C(=O)O)CCCC2)c1 | x | -6.5% | x | x | x | x
Cc1[nH]n(C(N)=S)c(=O)c1N=Nc1ccc([N+](=O)[O-])cc1Cl | x | 10µM* | -1.1% | 40.0% | -2.5% | x
Cn1ccnc1CN1CCN(CC2(O)CNCCOC2)CC1 (configuration not stated) | x | 37.9% | x | x | x | x
OC1(CN2CCN(c3cnccn3)CC2)CNCCOC1 (configuration not stated) | x | 10µM* | x | x | x | x
CCCCCCCCS(=O)CCCCC(=O)O (configuration not stated) | x | 22.5% | x | x | x | x
CCCCCCCCS(=O)CCC(=O)O (configuration not stated) | -2.3% | 25.1µM* | 4.1% | 6.3% | 1.7% | x

The list goes on; it opens with the two that closed the last part.
SMILES | TDP1 inh | ALOX12 inh | Rango-impB inh | Rango dissoc inh | TSG101-PTAP inh | ClpP mod | others
CCCCCCCCS(=O)CCCCC(=O)O (configuration not stated) | x | 22.5% | x | x | x | x
CCCCCCCCS(=O)CCC(=O)O (configuration not stated) | -2.3% | 25.1µM* | 4.1% | 6.3% | 1.7% | x
COc1ccc(C(=NNc2ccccc2C(=O)O)c2ccc(OC)cc2)cc1 | 8.0% | u | -2.3% | 1.2% | 0.5% | -0.7%
CCc1ccccc1N/N=C(/c1ccccc1)c1ccc(Br)cc1 | x | 7.94µM* | x | x | x | x
O=C(Cc1cccc2ccccc12)N(Cc1cccc2[nH]ccc12)C1CC1 | x | 1.6% | x | x | x | x
Cc1nn(Cc2ccccc2)c2ncccc12 | -0.9% | 44.7µM* | -1.3% | -3.2% | -0.9% | -5.9%
O=C1c2ccccc2CN1C1CCN(Cc2cccc3ccccc23)CC1 | x | 50.1µM* | x | x | x | x
O=C1NCCN1C1CCN(Cc2cccc3ccccc23)CC1 | x | 2.9%[12.5 µM] | x | x | x | x
O=C1NCc2ccccc2CC12CCN(Cc1c(F)cccc1F)CC2 | x | 6.2%[6.33 µM] | x | x | x | x
CC1(C)CC(=O)C2=C(C1)N(CCN1CCOCC1)C1=C(C(=O)CC(C)(C)C1)C2c1cccc(F)c1 | 3.2% | 0.0% | u | u | -6.5% | 28.2µM*
Cc1ccc2nc(N3CCN(C(=O)CC4(CC(=O)O)CCCC4)CC3)nc(-c3ccccc3)c2c1 | x | -27.3% | x | x | x | x
Cc1ccccc1Cn1c(=O)n(Cc2ccc(Cl)cc2)c(=O)c2cccnc21 | -5.9% | -16.0% | x | x | x | 25.1µM*
COc1ccc(CCN2Cc3cc(NC(=O)c4ccc(OC)cc4)ccc3OC(C)C2=O)cc1 (configuration not stated) | x | 39.5% | x | x | x | x
O=[N+]([O-])c1ccc(CN2CCC(Cc3ccccc3)CC2)cc1 | x | u | -1.3% | -3.3% | -0.2% | -0.1%
COc1cccc(OCC(O)CN2CCC(Cc3ccccc3)CC2)c1 (configuration not stated) | 4.9% | 0.0% | -0.8% | -1.9% | 0.0% | 1.3%
CCC(=O)c1ccccc1OCCCN1CCC(Cc2ccccc2)CC1 | 5.7% | 6.31µM* | -0.3% | 4.4% | -1.8% | x
OC(COc1ccccc1)CN1CCC(Cc2ccccc2)CC1 (configuration not stated) | x | 7.94µM* | 0.4% | 3.5% | -4.2% | 0.6%
O=[N+]([O-])c1cccc(OCCCN2CCC(Cc3ccccc3)CC2)c1 | x | 0.501µM* | -0.9% | -9.0% | -2.3% | x
Clc1ccc2c(SCC3CO3)c3ccccc3nc2c1 (configuration not stated) | x | -24.5% | u | -18.8% | -4.9% | 31.6µM*
Cc1ccc(-c2nnn(CC(=O)NCC3CC3)n2)o1 | -2.0% | 1.9% | -0.3% | -11.4% | -4.4% | -1.4%
Cc1ccc(-c2nnn(CC(=O)Nc3ccc4nn(-c5ccccc5)nc4c3)n2)o1 | 2.1% | -5.6% | 0.6% | 23.8% | 0.8% | 14.1µM*
O=C(O)C(SC(C(=O)O)c1ccccc1)c1ccccc1 (configuration not stated) | x | -15.5% | 1.1% | 19.8% | -0.1% | 28.2µM*
CCN(CC)C(=O)CCc1c(C)nn(-c2ccc(F)cc2)c1Oc1ccccc1C | x | 48.7% | x | x | x | x
CC1(C)Cc2nc3oc4c(NCc5ccccc5)ncnc4c3cc2CO1 | 3.2% | -0.1% | 0.6% | 8.5% | -5.0% | 2.82µM* | ClpP validation=9.68µM*

Looked up by structure from the entries so far:
SMILES | TDP1 inh | ALOX12 inh | Rango-impB inh | Rango dissoc inh | TSG101-PTAP inh | ClpP mod | others
Cc1ccccc1Cn1c(=O)n(Cc2ccc(Cl)cc2)c(=O)c2cccnc21 | -5.9% | -16.0% | x | x | x | 25.1µM*
O=C(O)C(SC(C(=O)O)c1ccccc1)c1ccccc1 (configuration not stated) | x | -15.5% | 1.1% | 19.8% | -0.1% | 28.2µM*
